According to article PMC9460261, “Need for a Standardized Translational Drug Development Platform: Lessons Learned from the Repurposing of Drugs for COVID-19” (Microorganisms, 2022):

Assay: Population PK model from satellite PK studies in hamster
Conditions: hamster of the study's median weight (80-131 g)

## ivermectin
  VC/F, central volume of distribution, population estimate (%RSE): 543 (5.48) mL
